Measured values reported in patent publication US10174202B2, “Dyes with phosphinic acid, phosphinate, phosphonate and phosphonamidate substituents as auxochromic groups and methods for preparing the same” (Max-Planck-Gesellschaft zur Foerderung der Wissenschaften …, priority 2017, dated 2019).

What was measured:
[1] = Absorption spectroscopy (UV/Vis); format: physicochemical
Procedure: (§1) Absorption spectra were recorded with a Varian Cary 4000 UV-Vis double-beam spectrophotometer (Agilent Technologies, USA). For the determination of the absorption spectra, quartz cells with a 1 cm path length were used. Emission spectra and fluorescence quantum yield were obtained on a Quantaurus-QY Absolute PL quantum yield spectrometer C11347 (Hamamatsu Photonics, Japan) or on a Varian Cary Eclipse fluorescence spectrometer (Agilent Technologies, USA).

[2] = Emission spectra and fluorescence quantum yield; format: physicochemical
Procedure: as §1

Molecule	Stability (Stability of the dyes)	Absorption max. ([1]; in acetonitrile)	ε at absorption max. ([1]; in acetonitrile)	Absorption max. ([1]; in aq. PBS, pH 7.4)	ε at absorption max. ([1]; in aq. PBS, pH 7.4)	Emission max. ([2]; in acetonitrile)	QY (fluorescence quantum yield, Φfl) ([2]; in acetonitrile)	Stokes shift ([2]; in acetonitrile)	Emission max. ([2]; in aq. PBS, pH 7.4)	QY (fluorescence quantum yield, Φfl) ([2]; in aq. PBS, pH 7.4)	Stokes shift ([2]; in aq. PBS, pH 7.4)
Ethyl [3,6-bis(dimethylamino)-9H-xanthenylium-9-yl]phosphonate [Compound 11]	moderate	565 nm	63519 M⁻¹ cm⁻¹ and 63500 M⁻¹ cm⁻¹	597 nm	66564 M⁻¹ cm⁻¹ and 66600 M⁻¹ cm⁻¹	595 nm	0.44	30 nm	633 nm	0.22	36 nm
CN(C)c1ccc2c([PH](=O)O)c3ccc(N(C)C)cc3[n+](CCCC(=O)O)c2c1.O=C([O-])C(F)(F)F [Compound 23, 10-(3-Carboxypropyl)-3,6-bis(dimethylamino)-9-(hydroxyhydrophosphoryl)acridinium trifluoroacetate]	–	–	–	–	–	–	–	–	595 nm	–	–
COP(=O)(OC)c1c2ccc(=[N+](C)C)cc-2oc2cc(N(C)C)ccc12.O=C([O-])C(F)(F)F [Compound 5, 9-(Dimethoxyphosphoryl)-3,6-bis(dimethylamino)-9H-xanthenylium trifluoroacetate]	–	–	–	597 nm	–	–	–	–	–	–	–

Values joined by “and” are separate entries in the source; they are usually repeats but may differ in a detail not shown here. Identical values can stand only once.
